The values below come from patent US20030186999A1, “Purine derivatives having, in particular, antiproliferative properties, and their biological uses” (CENTRE NATIONAL DE LA RECHERCHE SCIENTIFIGUE (C.N.R.S.), priority 1995, published 2003).

Chains of the proteins cited; added tags and fusions are not shown. Lines headed by an entry give the natural chain unless they say otherwise; changes in a name come on top.
UniProt P11802: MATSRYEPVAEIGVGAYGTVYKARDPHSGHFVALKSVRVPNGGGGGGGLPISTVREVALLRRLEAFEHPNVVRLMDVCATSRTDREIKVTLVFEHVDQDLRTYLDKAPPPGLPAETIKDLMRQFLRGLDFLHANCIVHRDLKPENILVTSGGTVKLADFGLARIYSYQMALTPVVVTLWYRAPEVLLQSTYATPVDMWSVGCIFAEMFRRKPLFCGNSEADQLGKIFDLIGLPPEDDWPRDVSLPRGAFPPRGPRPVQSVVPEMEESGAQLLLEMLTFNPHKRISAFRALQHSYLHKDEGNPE

Where only a bound is given, the exact number is not on record here.

This assay deals with T1, cdc4/cyclin D1 (Homo sapiens, UniProt P11802).
T1 construct: GST (N); made in house; host or cells: insect cells
Description: cdk4/cyclin D1 kinase, GST-retinoblastoma protein phosphorylation. The class given is biochemical.

What is called IC50 is the point on the concentration scale where inhibition reaches its midpoint. As for `Cn1cnc2c(NCc3ccccc3)nc(NCCO)nc21` [olomoucine, 2-(2-hydroxyethylamino)-6-benzylamino-9-methylpurine], the IC50 was > 1 mM.
